# Assay results from patent publication US12721905B2, “Combination of anti-HER2 antibody-drug conjugate and PARP1 selective inhibitor” (AstraZeneca UK Limited, priority 2020, dated 2026).
# Test system: NCI-N87 xenograft
# Test: Antitumor test in vivo, NCI-N87 xenograft (Example 5)
# Design: species or system Female Nude mice
# Description: Female Nude mice (Charles River) aged 5-8 weeks were used, following 7 days acclimatisation before entry into the study. 1×10^7 NCI-N87 tumour cells (1:1 in Matrigel) were implanted subcutaneously onto the flank of the female Nude mice. When tumours reached approximately 150 mm^3, similar-sized tumours were randomly assigned to treatment groups as shown in Table 4:
# The dose of compound for each animal was calculated based on the individual body weight on the day of dosing. DS-8201 and AZD5305 were dosed on the same day, with DS-8201 being administered approximately 1 hour post the PO dose of AZD5305. DS-8201 was administered as a single dose at 1 mg/kg or 3 mg/kg on day 1, and AZD5305 was administered at 1 mg/kg QD for 28 days. Duration of dosing was for 28 days.
# The dosing solutions for DS-8201 were prepared on the day of dosing by diluting the DS-8201 stock (20.1 mg/ml) in 25 mM histidine buffer, 9% sucrose (pH5.5) to 0.6 mg/ml, and 0.2 mg/ml for the 3 mg/kg and 1 mg/kg dosing solutions, respectively. […]
# Tumour growth inhibition (TGI) was calculated as follows: TGI %={1−(MTV treated/MTV control)}*100 where MTV=mean tumor volume.
# Statistical significance was evaluated using one-tailed t-test of (log(relative tumour volume)=log(final vol/start vol)) at the day of final measure, comparing to vehicle control.
substance,measurement,setting,value
trastuzumab deruxtecan [DS-8201],TGI % day 41,"DS-8201 1 mg/kg IV single dose, 1 mg/kg",25%
same,TGI % day 41,"DS-8201 3 mg/kg IV single dose, 3 mg/kg",62%
